For one substance, results for uveoretinitis results are on record in patent US6645504B1, “Bystander suppression of type I diabetes by oral administration of glucagon” (AutoImmune Inc., priority 1987, dated 2003).

This assay concerns uveoretinitis. Kind of assay: Human trials with oral S-antigen. It counts as in vivo, humans. The text has this: The above animal models can be used to establish the utility of the present invention in mammals (including humans). […] All of these human trials were attempted based on animal data using the appropriate disease model.

As for “S-antigen: oral S-antigen used in human uveoretinitis trials”, the results for uveoretinitis is “very encouraging results”.
